For experiment [1], the target named is T1, Cholinesterase (Homo sapiens, UniProt P06276). Briefly: Inhibition of human BuChE using butyrylthiocholine iodide as substrate incubated for 5 mins.
Experiment [2] addresses T1, Cholinesterase. Briefly: Binding affinity to human BuChE (unknown origin) assessed as overall carbamolyation rate at 0.01 to 40 nM incubated for 60 mins.
The target of experiment [3] is T1, Cholinesterase. The experiment in a line: Binding affinity to human BuChE (unknown origin) assessed as equilibrium dissociation constant at 0.01 to 40 nM incubated for 60 mins.

Amino acid sequences for entries named in this document (tags omitted).
UniProt P06276, whole entry: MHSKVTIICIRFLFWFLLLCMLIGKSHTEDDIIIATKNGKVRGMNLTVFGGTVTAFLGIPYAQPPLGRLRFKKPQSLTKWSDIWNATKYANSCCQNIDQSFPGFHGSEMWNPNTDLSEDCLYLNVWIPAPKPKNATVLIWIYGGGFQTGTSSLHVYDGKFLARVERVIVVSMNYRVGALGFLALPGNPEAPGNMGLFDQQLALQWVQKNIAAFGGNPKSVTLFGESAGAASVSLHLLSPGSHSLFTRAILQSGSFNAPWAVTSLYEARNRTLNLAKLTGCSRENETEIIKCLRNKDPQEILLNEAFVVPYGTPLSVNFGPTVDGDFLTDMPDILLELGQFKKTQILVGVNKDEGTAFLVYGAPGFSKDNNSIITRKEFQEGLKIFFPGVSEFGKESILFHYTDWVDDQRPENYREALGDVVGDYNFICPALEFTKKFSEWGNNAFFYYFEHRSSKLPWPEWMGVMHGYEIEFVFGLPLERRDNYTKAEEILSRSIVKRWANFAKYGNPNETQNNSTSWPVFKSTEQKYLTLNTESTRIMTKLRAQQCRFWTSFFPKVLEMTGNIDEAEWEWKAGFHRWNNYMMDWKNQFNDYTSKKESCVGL

Data on one molecule can be found in ChEMBL document CHEMBL6087398, “Natural phenol carbamates: Selective BuChE/FAAH dual inhibitors show neuroprotection in an Alzheimer's disease mouse model” (Eur J Med Chem, 2025).

`CCN(C)C(=O)Oc1cccc([C@H](C)N(C)C)c1` [RIVASTIGMINE] gave an IC50 on Cholinesterase [1] of 4.25 µM. Further, the Ki at Cholinesterase [2] is 5.65 10^-3/uM/min. For the same molecule, the equilibrium dissociation constant (Kd) on Cholinesterase [3] worked out at 3.68 µM.
